Structures are written as SMILES. The entries are a selection whose mix differs from that of the whole data set. Some of these compounds have results that are not shown, active ones among them. Activity calls are given as the source filed them.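 Rule for the calls: active = inhibition above 50%; inactive = the rest.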

For this experiment, the target named is Heat shock protein HSP 90-alpha (Homo sapiens) (UniProt P07900). Nature of the experiment: tumor Hsp90 inhibitors, primary screen, cell lysate, fluorescence polarization, NCI-N417 lysate (AID 429).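 Note: 0% = tracer plus lysate wells and 100% = tracer alone without lysate.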 As to conditions: NCI-N417 lysate Hsp90, Cy3B-geldanamycin FP displacement; at 30 µM; stronger effect = higher value. On the technique in general: Polarisation of emitted light reports the rotation of a fluorescent probe.
For `O=C(OC1CN2CCC1CC2)C(CO)(c1ccccc1)c1ccccc1` (configuration not stated), the inhibition is inactive: -6.31%.

Consider `CN(C)c1cccc(C(=O)NCC2(N(C)C)CCCCC2)c1`, for which the inhibition is inactive: -1.22%.

These data come from PubChem BioAssay AID429 (Emory University Molecular Libraries Screening Center, 2006).
